## Antibody variant affinities, Ab-14 heavy chain, assay B

Values reported by Li et al. 2023, doi:10.1038/s41467-023-39022-2 (FLAb copy).

Target: peptide PDVDLGDISGINAS, taken from heptad repeat 2 (HR2) of SARS-CoV-2 spike.

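The starting antibody came from a phage panning campaign against this peptide. Designed CDR sequences, proposed from the first random library and measured here. Group labels follow the data file (Ctrl: baseline library sampled from a position-specific scoring matrix, with some repeated check sequences; Rand: our label for a block that the file lists under HC and that is probably the random mutants of the ten best first-round binders; En: ensemble of fine-tuned language models; GP: Gaussian process model; GPLM: also part of the Gaussian process libraries; HC: hill climbing; Gen: genetic algorithm; Gibbs: Gibbs sampling; a sequence that several methods proposed may carry one label only). The scFvs were displayed on barcoded MATa yeast, the peptide on MATalpha yeast. The frequency of each diploid, read from paired DNA barcodes, reflects how well the two displayed proteins bind. The ratio of observed to expected reads was calibrated, replicate by replicate, on BCL2-family standards whose Kd was known from biolayer interferometry. There are six technical replicates.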

The variants keep the light chain, the linker and the frameworks of Ab-14 (scFv order VH, three GGGGS repeats, VL).
VH: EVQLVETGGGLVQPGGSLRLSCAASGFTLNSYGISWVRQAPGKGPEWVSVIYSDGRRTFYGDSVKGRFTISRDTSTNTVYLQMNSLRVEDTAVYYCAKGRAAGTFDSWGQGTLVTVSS
VL: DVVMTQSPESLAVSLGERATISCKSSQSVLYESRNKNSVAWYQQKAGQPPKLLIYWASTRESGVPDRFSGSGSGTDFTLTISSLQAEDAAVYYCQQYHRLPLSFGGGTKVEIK

Variants are written as CDR1, CDR2 and CDR3 of the heavy chain (limits as in the source). Parent: GFTLNSYGIS, VIYSDGRRTFYGDSVK, GRAAGTFDS. Values are apparent Kd, the geometric mean of the replicates that gave a signal; lower means stronger binding. "no signal" means that the variant was in the library but no mating with the target was seen in any replicate; the authors take this as a sign of poor binding, and no number exists. Entries are sorted by rising average, undetected variants last. As a blank, each scFv also met three strains without target: over all heavy chain designs, 1% of these pairings were detected, typically at 120 nM and seldom below 7.0 nM. The authors' rule: three or more of the six replicates give a measured affinity, fewer mean a poor binder. Values of this round are not directly comparable with the first-round values of the same sequences. Of ten entries with the parent sequence, four were seen in most replicates (averages 2.2 nM to 240 nM), three in one and three in none, so single entries are noisy.

CDR-H1 | CDR-H2 | CDR-H3 | group | Kd | seen in
GFNLNEYGIS | VIYADGKRTFYSDSVK | GEAAGTFDV | En_HC | 320 pM | 6/6
GFDLNEYGIS | VIYADGRRTAYADSVK | GGNAGTFDL | En_Gen | 340 pM | 6/6
GFDLNEYGIS | VIYADGRRTAYADDVK | GEVAGTFDV | En_Gen | 360 pM | 6/6
GFDLNEYGIS | VIYADGRRTAYADSVK | GESAGTFDQ | En_HC | 380 pM | 6/6
GFDLNEYGIS | VIYADGRRTAYVDSVK | GQVAGTFNV | En_HC | 380 pM | 6/6
GFDLEEYGIS | VIYADGRRTFYSDSVK | GEAAGTFDS | En_HC | 400 pM | 6/6
GFSLDEYGIS | VIYADGRRTFYADSVK | GNVAGTFDE | En_HC | 430 pM | 6/6
GFDLNEYGIS | VIYADGMRTAYADSVK | GQNAGTFDQ | En_Gen | 430 pM | 6/6
GFDLNEYGIS | VIYADGMRTAYIDSVK | GNQAGTFDM | En_Gen | 450 pM | 6/6
GFDLDEYGIS | VIYADGMRTSYADSVK | GNVAGTFDI | En_Gen | 480 pM | 6/6
GFGLDEYGIS | VIYADGRRTFYADSVK | GENAGTFSM | En_HC | 580 pM | 6/6
GFSLNDYGIS | VIYSDGRRTFYGDNVK | GRTAGTFDS | GPLM_Gen | 660 pM | 6/6
GFDLNEYGIS | VIYADGQRTAYSDSVK | GEVAGTFDQ | En_Gen | 660 pM | 6/6
GFDLNEYGIS | VIYADGQRTAYSDDVK | GENAGTFDV | En_Gen | 810 pM | 6/6
GFELNSYGIS | VIYADGRRTFYGDSVK | GRAAGTFDM | GP_Gen | 920 pM | 3/6
GFNLNEYGIS | VIYADGKRTFYSDSVK | GEAGGTFDV | En_HC | 1.5 nM | 6/6
GFDLDEYGIS | VIYADGMRTAYSDNVK | GETAGTFDQ | En_Gen | 1.5 nM | 1/6
GFDLNEYGIS | VIYADGRRTAYADSVK | GQVAGTFNV | En_HC | 1.6 nM | 6/6
GFSLNSYGIS | VIYSDGKRTFYADSVK | GRQAGTFDS | GPLM_Gen | 1.6 nM | 6/6
GFSLNSYGIS | VIYSDGRRTFYADSVK | GWTAGTFDS | GPLM_Gen | 1.7 nM | 6/6
GFDLNEYGIS | VIYADGRRTFYKDSVK | GANGGTFDV | En_HC | 1.9 nM | 6/6
GFTLNEYGIS | VIYSDGMRTFYSDAVK | GVAAGTFDS | Ctrl | 3.0 nM | 6/6
GFDLNEYGIS | VIYADGMRTAYIDSVK | GNAAGTFDV | En_HC | 3.2 nM | 6/6
GFSLNNYGIS | VIYSDGRRTFYGDAVK | GRTAGTFDS | GPLM_Gen | 5.9 nM | 6/6
GFSLNSYGIS | VIYSDGRRTFYQDKVK | GRTAGTFDS | GPLM_Gibbs | 9.3 nM | 4/6
GFTLNEYGIS | VIYSDGRRTFYGDSVK | GQAAGTFDN | GPLM_Gen | 10 nM | 6/6
GFSLNSYGIS | VIYSDGRRTFYIDSVK | GKVAGTFDS | GPLM_Gibbs | 12 nM | 6/6
GFDLNEYGIS | VIYADGVRTFYTDSVK | GANAGTFDQ | En_HC | 12 nM | 4/6
GFNLNSYGIS | VIYSDGRRTFYIDSVK | GQTAGTFDS | GPLM_Gen | 13 nM | 6/6
GFTLNNYGIS | VIYSDGKRTFYGDSVK | GRAAGTFDS | Ctrl | 21 nM | 6/6
GFTLNEYGIS | VIYSDGRRTFYSDAVK | GRCAGTFDS | GP_HC | 33 nM | 3/6
GFTLNSYGIS | VIYSDGYRTAYGDSVK | GRAAGTFDS | Ctrl | 41 nM | 6/6
GFHLNSYGIS | VIYSDGRRTFYTDSVK | GQAAGTFDS | GP_Gen | 61 nM | 3/6
GFTLNQYGIS | VIYSDGQRTFYADSVK | GRAAGTFDS | GPLM_HC | 62 nM | 6/6
GFDLNEYGIS | VIYADGRRTFYADSVK | GNQAGTFII | En_HC | 71 nM | 6/6
GVSLNSYGIS | VIYSDGRRTFYDDSVK | GRAAGTFDS | Ctrl | 110 nM | 1/6
GFTLADYGIS | VIYSDGRRTQYIDSVK | GRAAGTFDS | Rand | 140 nM | 2/6
GFALNEYGIS | VIYSDGRRTFYMDSVK | GRTAGTFDS | GPLM_HC | 220 nM | 4/6
GFNLNSYGIS | VIYSDGRRTFYGNSVK | GRVAGSFDM | Ctrl | 240 nM | 3/6
GNSLNSYGIS | VIYSDGRRTFYADSVK | GRAAGTFDS | Ctrl | 260 nM | 3/6
GADLNEYGIS | VIYADGRQVYYANSFK | GHVAGTFDS | En_Gibbs | 360 nM | 2/6
GMDLEEYGIS | VIYADGMRTYASDSVK | GDQGGNLLY | En_Gibbs | 950 nM | 1/6
GFDLNSYGIS | VIYSDGRRTFYGDSVK | GITAGTFDS | GP_Gen | no signal | 0/6
GFWLDEYGIS | VIYADGKRVAYINSVK | GQFTYFTDV | En_Gibbs | no signal | 0/6
GFTLNSYGIS | VIYSDGRRTFYGDDVK | LRAAGTFDS | Ctrl | no signal | 0/6
GFQLNSYGIS | VIYSDGRRTFYADSVK | GNAAGTFDS | GPLM_Gen | no signal | 0/6
GDVLKEYGIS | VIYADGMRTSYVQDVK | GQKSGSFSV | En_Gibbs | no signal | 0/6
GFDLAEYGIS | VIYADGMRNAYATNVK | GYFGGTVMY | En_Gibbs | no signal | 0/6
GFTLNEYGIS | VIYSDGRRTFYSDSVK | GRAADTFDS | Ctrl | no signal | 0/6
GFPLNSYGIS | VIYSDGRRTIYGDSVK | GRAAGTFDS | Ctrl | no signal | 0/6
GFTLNSYGIS | VIYSDGRRTFYGDSVK | GAAAGDFDS | Ctrl | no signal | 0/6
DFTLNSYGIS | VIMSDGRRTFYSDSVK | IRAGGTFDS | Rand | no signal | 0/6
QFTLNSYGVS | VIYSDGRRTFYGDSVK | GYACDCFDS | Ctrl | no signal | 0/6
GFTLNDYGIS | VIYSDGRRTFYRDSVK | GRAAGTFDS | Ctrl | no signal | 0/6
GQSLNSYGIS | VIYSDGRRNFYGDSVK | GRAAGTFDL | Ctrl | no signal | 0/6
GEDLDSYGIS | VIYADGLRTVYSDNFK | GNLGGQFDM | En_Gibbs | no signal | 0/6
GFDINEYGIS | VIYADGKKTAFANTVK | GESAGNFDD | En_Gibbs | no signal | 0/6
GFQLNSYGIS | VIYSDGRRTFYSDSVK | GDAAGTFDS | GPLM_HC | no signal | 0/6
GFDLQEYGIS | VIYADGTREAYSEKVK | GQLAGYFMF | En_Gibbs | no signal | 0/6
GFDLNSYGIS | VIYADGRRWFYGDSVK | GRAAGTFDS | GP_Gibbs | no signal | 0/6
GFNLQEYGIS | VIYADGMRTAYASKVK | GKVWWFLLM | En_Gibbs | no signal | 0/6
GFTLNSYGIS | VIYSDGRRTFYGDSVK | GRLAGTFDV | Ctrl | no signal | 0/6
GFTLESYGIS | VIYADGRRTFYGDHVK | GRAAGTFIS | GP_HC | no signal | 0/6